The record followed here is ChEMBL document CHEMBL2046324, “Synthesis and biological evaluation of 1-arylsulfonyl-5-(N-hydroxyacrylamide)indoles as potent histone deacetylase inhibitors with antitumor activity in vivo” (J Med Chem, 2012).

Assay [1] deals with Histone deacetylase. Description: Inhibition of HDAC in human HeLa cell nuclear extract after 30 mins by fluorescence microplate reader. Format: protein assay.
Assay [2] deals with Histone deacetylase 1 (Homo sapiens, UniProt Q13547). Description: Inhibition of human recombinant HDAC1 after 30 mins by fluorometric assay.

pIC50: −log10 of the molar value.

By IC50 is commonly meant the midpoint of a concentration-inhibition curve. A high value points to lower potency. Broadly, the pIC50 is the IC50 on a negative log10 scale, so that one unit is a factor of ten. In assay [1], `O=C(/C=C/c1ccc2c(ccn2S(=O)(=O)c2ccccc2)c1)NO` came in with a 50% inhibitory concentration (IC50) of 29.5 nM. Further, in assay [2], the negative-log IC50 (pIC50) is 7.91.
